Test system: CC1(C)S[C@@H]2[C@H](NC(=O)[C@H](N)c3ccccc3)C(=O)N2[C@H]1C(=O)O
Experiment: purified protein, by the assay type
Conditions: other: β-lactam substrate of KPC-2, enzyme […]; 37.0 °C

KPC-2 (Klebsiella pneumoniae)
Km: 55 ± 7 µM
kcat: 200 ± 40 s⁻¹
kcat/Km: 3.64 µM⁻¹ s⁻¹

From paper PMC5735191, “Computational and biological profile of boronic acids for the detection of bacterial serine- and metallo-β-lactamases” (Scientific Reports, 2017)
